# From PubChem BioAssay AID686970 (National Center for Advancing Translational Sciences (NCATS), 2013)
# This is a selection; strong and weak results do not stand in their true shares. Inconclusive results are not listed. The source made the active and inactive calls. Calls follow the shape of the dose curve; as a rule, active = well fitted cell-killing curve with a large enough effect; inconclusive = small, poorly fitted or top-dose-only effect, or effect the other way; inactive = flat fitted curve, though single readings scatter.
# Experiment: qHTS for induction of synthetic lethality in tumor cells producing 2HG: qHTS for the HT-1080-NT fibrosarcoma cell line;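 also: NT is the 2HG producing partner of a matched IDH1 knockdown line; 0% = DMSO-treated cells and -100% = media-only wells without cells; nearly all actives have a fitted effect of over 55% in size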
# Conditions: HT-1080-NT fibrosarcoma viability, CellTiter-Glo ATP luminescence, 48 h; at 46.1 µM (top of the series) unless noted
row,SMILES,"activity, negative = less viability"
1,CSc1ccc(C(=O)NCC2(N3CCOCC3)CCCCC2)cc1,inactive: -2.46%
2,O=C(NCC1(N2CCCCC2)CCCCC1)c1ccc(OC(F)F)cc1,inactive: -0.251%
3,COc1cc(C(=O)NCC2(N3CCCCC3)CCCCC2)ccc1OC(F)F,inactive: 7.99%
4,O=C(NCC1(N2CCOCC2)CCCCC1)c1cc(=O)[nH]c2ccccc12,inactive: -3.71%
5,CN1CCN(CCOC(=O)C(O)(c2ccccc2)c2ccccc2)CC1,inactive: 6.27%
6,CC(C)c1ccc(C(=O)NCC2(N3CCOCC3)CCCCC2)cc1,inactive: -7.02%
7,COc1ccc(NC2CCN(C(=O)OC(C)(C)C)CC2)cc1,inactive: -19.9%
8,O=[N+]([O-])c1cc([N+](=O)[O-])c(NCC2CCS(=O)(=O)C2)c([N+](=O)[O-])c1 (stereo not given),inactive: -0.565%
9,O=C(NCC1(N2CCCCC2)CCCCC1)c1cccc(C(F)(F)F)c1,inactive: -14.4%
10,COc1ccc(NC2CCN(CCc3ccccc3)CC2)c(OC)c1,inactive: -1.68%
11,CCOC(=O)N1CCC(Nc2ccc(F)cc2)CC1,inactive: 2.1%
12,O=C(NCC1(N2CCCCC2)CCCCC1)c1ccc(F)cc1,inactive: 1.19%
13,O=P1(N(CCCl)CCCl)SCCCS1,inactive: -2.25%
14,CCCCOc1ccc(C(=O)NCC2(N3CCOCC3)CCCCC2)cc1,inactive: 10.3%
15,O=C1CCN(Cc2ccccc2)CC1,inactive: -1.88%
16,CC(C)(C)n1nnnc1C(c1ccccc1)N1CCC(n2c(=O)[nH]c3ccccc32)CC1 (stereo not given),inactive: -1.41%
17,CCOc1ccc(C)cc1CN(CCCl)CCCl,inactive: -0.586%
18,COc1cc(C(=O)NCC2(N(C)C)CCCCC2)ccc1OC(F)F,inactive: -3.5%
19,CCOC(=O)N1CCC(Nc2cccc(C)c2)CC1,inactive: 12.2%
20,O=c1[nH]c2ccccc2n1C1CCN(C(c2ccccc2)c2nnnn2C2CCCCC2)CC1 (stereo not given),inactive: 2.12%

row,SMILES,"activity, negative = less viability"
1,Cc1cccc(NC2(C#N)CCN(Cc3ccccc3)CC2)c1,inactive: 21.1%
2,CSc1ccccc1C(=O)NCC1(N2CCCCC2)CCCCC1,inactive: 0.147%
3,CCC(c1nnnn1C1CCCC1)N1CCC(n2c(=O)[nH]c3ccccc32)CC1 (stereo not given),inactive: 20.6%
4,CC(C)(C)OC(=O)N1CCC(N(C(=O)c2ccccc2)c2ccc(F)cc2)CC1,inactive: 14.5%
5,COc1ccc(C(=O)NCC2(N3CCCCC3)CCCCC2)c(OC)c1OC,inactive: -12.9%
6,COc1ccc(C(=O)NCC2(N3CCCCC3)CCCCC2)cc1,inactive: -1.6%
7,O=C(NCC1(N2CCCCC2)CCCCC1)c1cccs1,inactive: 1.23%
8,CCCCn1nnnc1C(CC)N1CCC(n2c(=O)[nH]c3ccccc32)CC1 (stereo not given),inactive: 5.56%
9,O=C(NCC1(N2CCCCC2)CCCCC1)c1ccc(=O)[nH]c1,inactive: -1.03%
10,O=C1C(O)=C([N+](=O)[O-])C(=O)C(O)=C1[N+](=O)[O-],inactive: 13.4%
11,COc1ccc(Cl)cc1C(=O)NCC1(N2CCOCC2)CCCCC1,inactive: -0.0527%
12,O=C(OC1CN2CCC1CC2)C1c2ccccc2Oc2ccccc21 (stereo not given),inactive: -6.99%
13,O=c1[nH]c2ccccc2n1C1CCN(C(c2cc3ccccc3o2)c2nnnn2C2CCCCC2)CC1 (stereo not given),inactive: 2.07%
14,O=C(NCC1(N2CCCCC2)CCCCC1)c1ccc(Cl)s1,inactive: -8.36%
15,N#CC1(Nc2ccccc2)CCN(Cc2ccccc2)CC1,inactive: -6.58%
16,CCCCn1nnnc1C(c1ccc(OC)cc1)N1CCC(n2c(=O)[nH]c3ccccc32)CC1 (stereo not given),inactive: -7.87%
17,CCOC(=O)N1CCC(Nc2ccc(OC)cc2)CC1,inactive: 3.44%
18,O=c1[nH]c2ccccc2n1C1CCN(C(c2ccccc2OC(F)(F)F)c2nnnn2C2CCCCC2)CC1 (stereo not given),inactive: 16.8%
19,O=C(NCC1(N2CCCCC2)CCCCC1)c1ccc(Cl)nc1,inactive: -0.409%
20,O=C(NCC1(N2CCOCC2)CCCCC1)c1cc2ccccc2o1,inactive: 3.73%
